Key:
HA-hDOP receptor [1] = target: T1, HA-hDOP receptor (Homo sapiens, UniProt P41143)
HA-hDOP receptor [2] = target: T1, HA-hDOP receptor; remark: listed apart in the source
HA-hDOP receptor [3] = target: T1, HA-hDOP receptor; assay: cell-based; type: cell-based; set-up: host or cells: AtT20-D16v-F2 (AtT20) cells, stably transfected; conditions: for Emax: AtT20, read-out: Emax in % of DPDPE

The chains behind the UniProt entries cited, without tags or fusion partners.
UniProt P41143, whole entry: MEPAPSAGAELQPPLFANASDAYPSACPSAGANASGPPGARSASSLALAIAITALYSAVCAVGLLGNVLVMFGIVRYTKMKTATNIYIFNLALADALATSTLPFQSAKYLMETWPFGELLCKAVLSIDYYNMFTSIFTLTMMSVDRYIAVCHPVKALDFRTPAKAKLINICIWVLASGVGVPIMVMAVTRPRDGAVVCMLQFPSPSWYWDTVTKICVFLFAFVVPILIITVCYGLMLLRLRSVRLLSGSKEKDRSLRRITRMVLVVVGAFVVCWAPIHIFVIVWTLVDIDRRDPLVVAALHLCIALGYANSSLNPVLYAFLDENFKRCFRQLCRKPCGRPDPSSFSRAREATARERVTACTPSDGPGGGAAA

| SMILES | Agonist-induced DOP receptor phosphorylation at T361 and S363 (HA-hDOP receptor [1]) | Agonist-induced DOP receptor internalization (HA-hDOP receptor [2]) | EC50 (HA-hDOP receptor [3]) | Emax (HA-hDOP receptor [3]) | Heterologous phosphorylation at T361 or S363 (PKC/PKA activation) (HA-hDOP receptor [1]) | Antagonist effect on DPDPE-induced phosphorylation at T361 and S363 (HA-hDOP receptor [1]) | Antagonist effect on DPDPE-induced receptor internalization (HA-hDOP receptor [2]) | also measured |
| --- | --- | --- | --- | --- | --- | --- | --- | --- |
| CCN(CC)C(=O)c1ccc(C2=CC3(CCNCC3)Oc3cccc(O)c32)cc1 [ADL5859, N,N-diethyl-4-(5-hydroxyspiro[chromene-2,4′-piperidine]-4-yl)benzamide] | Robust phosphorylation | receptor internalization were detectable | 0.057 ± 0.0109 µM | 84.4% | – | – | – | – |
| CN1CC[C@]23c4c5ccc(O)c4O[C@H]2[C@@H](O[C@@H]2O[C@H](C(=O)O)[C@@H](O)[C@H](O)[C@H]2O)C=C[C@H]3[C@H]1C5 [M6G, morphine-6-glucuronide] | phosphorylation only at S363 | weak receptor internalization | 1.2 ± 0.401 µM | 54.6% | – | – | – | Emax, GIRK channel activation (HA-hDOP receptor [3]): 13.73 ± 0.86 |
| CCCCCCCCCCCCCC(=O)O[C@@H]1[C@@H](C)[C@@]2(O)[C@@H](C=C(CO)C[C@]3(O)C(=O)C(C)=C[C@@H]23)[C@@H]2C(C)(C)[C@]12OC(C)=O [PMA, phorbol-12-myristat-13-acetat] | – | – | – | – | Neither forskolin nor PMA induced any detectable phosphorylation | – | – | – |
| C=C[C@@]1(C)CC(=O)[C@]2(O)[C@@]3(C)[C@@H](O)CCC(C)(C)[C@@H]3[C@H](O)[C@H](OC(C)=O)[C@@]2(C)O1 [forskolin] | – | – | – | – | Neither forskolin nor PMA induced any detectable phosphorylation | – | – | – |
| Oc1ccc2c3c1O[C@H]1c4oc5ccccc5c4C[C@@]4(O)[C@@H](C2)N(CC2CC2)CC[C@]314 [naltriben] | – | – | – | – | – | block | block | – |
| Oc1ccc2c3c1O[C@H]1c4[nH]c5ccccc5c4C[C@@]4(O)[C@@H](C2)N(CC2CC2)CC[C@]314 [naltrindole] | – | – | – | – | – | block | block | Effect on DPDPE-induced hyperpolarization (HA-hDOP receptor [3]): reversal of the DPDPE-induced hyperpolarization towards baseline level |

From publication PMC7244497 (Scientific Reports, 2020)
